Data: patent publication US10206893B2, “Immunoregulatory agents” (Flexus Biosciences, Inc., priority 2014, dated 2019)
pIC50: −log10 of the molar value.

By UniProt entry, the sequences of proteins in these tests, tags left out.
UniProt P14902, whole entry: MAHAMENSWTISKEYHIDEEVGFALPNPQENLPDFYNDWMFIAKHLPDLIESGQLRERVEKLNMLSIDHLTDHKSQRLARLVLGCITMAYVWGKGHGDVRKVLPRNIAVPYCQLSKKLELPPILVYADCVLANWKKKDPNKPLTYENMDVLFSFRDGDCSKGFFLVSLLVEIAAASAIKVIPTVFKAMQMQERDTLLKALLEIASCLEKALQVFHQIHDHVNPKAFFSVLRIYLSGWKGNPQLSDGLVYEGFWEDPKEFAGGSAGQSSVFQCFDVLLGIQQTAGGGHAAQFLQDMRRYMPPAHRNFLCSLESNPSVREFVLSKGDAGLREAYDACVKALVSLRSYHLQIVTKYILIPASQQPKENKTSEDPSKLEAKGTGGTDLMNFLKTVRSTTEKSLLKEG

Target: human IDO1 (Homo sapiens, UniProt P14902)
Test: IDO inhibition assay in HEK293 cells stably expressing human IDO1 (kynurenine, Ehrlich reagent)
Settings: read-out: HEK Human IDO-1 Bio Activity, 20 hours incubation

CCC(NC(=O)c1ccc(Cl)cc1)[C@H]1CC[C@@H](Oc2cc(C(F)(F)F)nc3ccccc23)CC1 (relative stereo)
pIC50: > 7.30
